Patent US20190328665A1, “LIPOSOME COMPOSITIONS ENCAPSULATING MODIFIED CYCLODEXTRIN COMPLEXES AND USES THEREOF” (priority 2014, published 2019)

Format: in vivo
Conditions: oral gavage 200 mg/kg

SMILES: O=C(NOC[C@H](O)CO)c1ccc(F)c(F)c1Nc1ccc(I)cc1F [PD-0325901]
- acute toxicity / survival: always died within 24 hours
